Test results reported in patent publication US8668921B2, “Lipase inhibitors” (Suntory Holdings Limited, priority 2004, dated 2014).

Target: T1, porcine pancreatic lipase (Sus scrofa, UniProt P00591)
T1 construct: purchased Sigma
T1 sequence (P00591 1-450): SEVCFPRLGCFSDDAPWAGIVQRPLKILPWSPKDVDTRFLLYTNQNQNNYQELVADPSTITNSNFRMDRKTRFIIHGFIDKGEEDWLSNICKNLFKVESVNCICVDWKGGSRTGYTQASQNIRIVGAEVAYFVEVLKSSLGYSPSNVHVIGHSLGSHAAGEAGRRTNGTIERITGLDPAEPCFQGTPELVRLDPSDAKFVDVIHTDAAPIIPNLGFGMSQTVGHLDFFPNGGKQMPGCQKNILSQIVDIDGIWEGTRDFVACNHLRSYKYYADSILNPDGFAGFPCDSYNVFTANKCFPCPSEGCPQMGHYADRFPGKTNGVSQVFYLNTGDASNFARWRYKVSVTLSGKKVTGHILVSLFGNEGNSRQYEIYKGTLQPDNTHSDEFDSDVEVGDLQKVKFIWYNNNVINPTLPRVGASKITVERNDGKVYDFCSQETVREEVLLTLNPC
Test: Lipase inhibitory activity assay (4-MUO fluorescent substrate)
Assay type: biochemical
Conditions: 4-MUO substrate, 25° C., 30 minutes, pH 8.0

## (−)-catechin 3-O-gallate [(−)-catechin 3-O-gallate (6)]
  IC50: 0.846 µM
